The target in this experiment is T1, human recombinant soluble epoxide hydrolase (sEH) (Homo sapiens, UniProt P34913).
T1 construct: made in house; host or cells: Sf9 insect cells (recombinant baculovirus)
As to the kind of experiment: sEH activity. The format is biochemical.

Chains of the proteins cited; added tags and fusions are not shown.
UniProt P34913, whole entry: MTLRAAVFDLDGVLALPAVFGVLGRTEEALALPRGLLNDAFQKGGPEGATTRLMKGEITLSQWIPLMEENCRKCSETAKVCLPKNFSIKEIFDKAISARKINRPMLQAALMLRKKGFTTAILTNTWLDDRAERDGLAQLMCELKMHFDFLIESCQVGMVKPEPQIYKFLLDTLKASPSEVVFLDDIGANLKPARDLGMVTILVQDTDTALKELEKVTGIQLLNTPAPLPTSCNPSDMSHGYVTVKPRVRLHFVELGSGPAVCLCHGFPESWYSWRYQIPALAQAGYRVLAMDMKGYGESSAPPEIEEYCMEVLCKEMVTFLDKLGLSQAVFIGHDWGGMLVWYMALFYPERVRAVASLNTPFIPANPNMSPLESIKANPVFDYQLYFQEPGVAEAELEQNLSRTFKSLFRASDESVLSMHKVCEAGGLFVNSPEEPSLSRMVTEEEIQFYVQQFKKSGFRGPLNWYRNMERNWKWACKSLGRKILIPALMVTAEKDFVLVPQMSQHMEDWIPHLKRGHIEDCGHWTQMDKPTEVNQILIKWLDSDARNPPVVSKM

The source of these data is article PMC6148290, “Endogenous metabolites of vitamin E limit inflammation by targeting 5-lipoxygenase” (Nature Communications, 2018).

Take AUDA [reference compound]: the “suppression of sEH activity” value was determined as 42.2 ± 1.9%.
